These are literature values, as cited in patent US12178829B2, “Altering net charge on mannosylated dextrans to maximize target tissue uptake and off target competitive blocking” (Navidea Biopharmaceuticals, Inc., priority 2022, dated 2024).

The conditions of this series: in humans, injected into the blood.

For “dextran 3-[(2-aminoethyl)thio]propyl 17-carboxy-10,13,16-tris(carboxymethyl)-8-oxo-4-thia-7,10,13,16-tetraazaheptadec-1-yl 3-[[2-[[1-imino-2-(D-mannopyranosylthio)ethyl]amino]ethyl]thio]propyl ether complexes [tilmanocept]”, the blood half-life entry is “about 20 minutes”.
